Results reported in PubChem BioAssay AID463193 (University of Pittsburgh Molecular Library Screening Center, 2010).
Only a part is listed here, and it is no random draw. The source made the active and inactive calls.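 How the source made its calls: active means percentage of spot-positive cells more than 3 SD above its plate mean, without a fluorescence outlier flag or 80% toxicity; inconclusive means no clear call, values can overlap the other calls; inactive means the rest.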

Assay: autophagy modulators in MEF cells, primary screen, imaging, high-content, MEF GFP-LC3 (AID 463193);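 further: spot-positive cell cutoff set from DMSO-treated cells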
Conditions: MEF GFP-LC3 puncta imaging, at 10 µM, hits give high values

Row | SMILES | % cells with GFP-LC3 spots
1 | COc1ccccc1OP(C)(=O)Nc1ccccc1Br (stereo not drawn) | inactive: 1.77%
2 | CC(C)(C)c1ccc(OP(C)(=O)O)cc1 | inactive: 16.1%
3 | CCN(/C(=N/P(=O)(N1CCOCC1)N1CCOCC1)N1CCOCC1)c1ccc(OC)cc1 | inactive: 11.1%
4 | CP(=O)(Nc1ccc(Cl)cc1)Oc1ccc(F)cc1 (stereo not drawn) | inactive: 3.86%
5 | CN(C)C(=O)c1c([N+](=O)[O-])cc([N+](=O)[O-])cc1[N+](=O)[O-] | inactive: 1.98%
6 | CC(C)=N/N=C(\N)N[N+](=O)[O-] | inactive: 3.1%
7 | CN(C)C(=O)OCCc1n(C)cc[n+]1C | inactive: 13.1%
8 | CC1CCN(C(=O)Oc2c(Cl)cc(Cl)c3cccnc23)CC1 | inactive: 10.2%
9 | CCN(CC)CC(O)COC(=O)C(O)(c1ccccc1)C1CCCCC1 (stereo not drawn) | inactive: 13.6%
10 | COc1ccc(OP(C)(=O)Nc2ccc(Br)cc2)cc1 (stereo not drawn) | inactive: 0.85%
11 | COc1ccc(C2=NCC(CBr)S2)cc1 (stereo not drawn) | inactive: 0.978%
12 | O=[N+]([O-])c1cccc2n[nH]nc12 | inactive: 14.1%
13 | CC(=O)N1C2C3N(C(C)=O)C1C1N(C(C)=O)C(C(N1C(C)=O)N3C(C)=O)N2C(C)=O | inactive: 4.39%
14 | COc1ccccc1OP(C)(=O)Nc1c(C)n(C)n(-c2ccccc2)c1=O (stereo not drawn) | inactive: 12.7%
15 | CP(=O)(Oc1ccccc1)N1CCOC1=O (stereo not drawn) | inactive: 6.67%
16 | Cc1ccc(NP(=O)(Oc2ccccc2)Oc2ccccc2)nc1 | inactive: 0.446%
17 | CCc1ccc(OP(C)(=O)Nc2cccnc2)cc1 (stereo not drawn) | inactive: 13.9%
18 | CCc1nc2c(n1)c1c(non1O)c1c2no[n+]1[O-] | inactive: 18.7%
19 | O=[N+]([O-])c1cc([N+](=O)[O-])c(CCNc2ccccc2)c([N+](=O)[O-])c1 | inactive: 4.7%
20 | CP(=O)(Nc1ccc2c(c1)OCCO2)Oc1ccccc1 (stereo not drawn) | inactive: 6.37%
21 | Cc1ccccc1NP(C)(=O)Nc1ccccc1C | inactive: 2.55%
22 | CC(C)C(=O)NC(Sc1ccccc1)C(Cl)(Cl)Cl (stereo not drawn) | inactive: 3.07%
23 | O=P(Nc1nccs1)(c1ccccc1)c1ccccc1 | inactive: 10.8%
24 | CCOP(C)(=S)SCC(=O)NC(C)(CC)C(=O)O (stereo not drawn) | inactive: 3.86%

Row | SMILES | % cells with GFP-LC3 spots
25 | CC(=O)NC(SC(=S)N(C)C)C(Cl)(Cl)Cl (stereo not drawn) | inactive: 10.8%
26 | O=[N+]([O-])c1cc([N+](=O)[O-])c(NCC2CCS(=O)(=O)C2)c([N+](=O)[O-])c1 (stereo not drawn) | inactive: 0.537%
27 | C(Cc1nn[nH]n1)Cc1nn[nH]n1 | inactive: 17.8%
28 | O=C(OC1CN2CCC1CC2)c1cccc(Cl)c1 (stereo not drawn) | inactive: 1.14%
29 | COc1ccc(OP(C)(=O)Nc2cccc(Br)c2)cc1 (stereo not drawn) | inactive: 1.64%
30 | O=P(Nc1ccccn1)(c1ccc(Br)cc1)c1ccc(Br)cc1 | inactive: 17.4%
31 | CN(C)CCOC(=O)C(O)(c1ccccc1)C1CCCCC1 (stereo not drawn) | inactive: 8.78%
32 | COc1ccc(NP(C)(=O)Oc2ccccc2OC)cc1 (stereo not drawn) | inactive: 11.3%
33 | COC(=O)c1cc2c(s1)N=C(c1ccccc1)N(C)P2(=O)N1CCOCC1 (stereo not drawn) | inactive: 1.94%
34 | Cc1ccc(OP(=O)(Nc2ccccn2)Oc2ccc(C)cc2)cc1 | inactive: 8.75%
35 | CC(=O)NC(SC(=S)N(CC(C)C)CC(C)C)C(Cl)(Cl)Cl (stereo not drawn) | inactive: 15.5%
36 | CCN(CC)CCCOC(=O)C(O)(c1ccccc1)C1CCCCC1 (stereo not drawn) | inactive: 1.49%
37 | CCC(=O)N1C2C3N(C(=O)CC)C1C1N(C(=O)CC)C(C(N1C(=O)CC)N3C(=O)CC)N2C(=O)CC | inactive: 4.77%
38 | CP(=O)(Nc1ccccc1)Oc1ccc(F)cc1 (stereo not drawn) | inactive: 6.63%
39 | CCNC(=S)/N=C(\N)N[N+](=O)[O-] | inactive: 10.9%
40 | O=C(NC1CCS(=O)(=O)C1)NP(=S)(Oc1ccccc1)Oc1ccccc1 (stereo not drawn) | inactive: 7.17%
41 | c1ccc(-c2nn[nH]n2)c(-c2nn[nH]n2)c1 | inactive: 1.22%
42 | CCOC(=O)NC(Sc1ccccc1)C(Cl)(Cl)Cl (stereo not drawn) | inactive: 5.67%
43 | CCOC(=O)c1ccc(NP(C)(=O)Oc2ccc(F)cc2)cc1 (stereo not drawn) | inactive: 10%
44 | COc1ccc(OP(C)(=O)Nc2ccc(SC(F)(F)F)cc2)cc1 (stereo not drawn) | inactive: 5.84%
45 | O=C(OCCN1CCN(CCOCc2ccccc2)CC1)C(O)(c1ccccc1)c1ccccc1 | inactive: 9.05%
46 | CC(=O)Nc1ccc(Oc2c([N+](=O)[O-])cc([N+](=O)[O-])cc2[N+](=O)[O-])cc1 | inactive: 1.18%
47 | O=P1(Nc2nc3ccc(Cl)cc3s2)COc2ccccc2O1 (stereo not drawn) | inactive: 1.97%
48 | CCOc1ccc(C2=NCC(CBr)S2)cc1 (stereo not drawn) | inactive: 0.629%

Row | SMILES | % cells with GFP-LC3 spots
49 | CP(=O)(Nc1ccccc1F)Oc1ccccc1 (stereo not drawn) | inactive: 6.99%
50 | CC(C)(C)C(=O)NC(Sc1ccccc1)C(Cl)(Cl)Cl (stereo not drawn) | inactive: 2.27%
51 | CC(C)c1ccc(OP(C)(=O)Nc2ccc(SC(F)(F)F)cc2)cc1 (stereo not drawn) | inactive: 25.9%
52 | Cc1ccc(C)c(NP(C)(=O)Oc2ccccc2)c1 (stereo not drawn) | inactive: 5.14%
53 | Cc1cc(C)cc(OP(C)(=O)Nc2ccccn2)c1 (stereo not drawn) | inactive: 2.16%
54 | Cc1ccc(NCCc2c([N+](=O)[O-])cc([N+](=O)[O-])cc2[N+](=O)[O-])cc1 | inactive: 20.1%
55 | CCOP(=O)(Nc1cccc2ccccc12)OCC | inactive: 9.44%
56 | COc1cc(C(=O)NCC2(N3CCOCC3)CCCCC2)cc(Cl)c1OC(C)C | inactive: 7.87%
57 | CCOC(=O)c1ccc(NP(C)(=O)Oc2cc(C)cc(C)c2)cc1 (stereo not drawn) | inactive: 5.34%
58 | Cc1cccc(OCC(=O)OC2CN3CCC2CC3)c1 (stereo not drawn) | inactive: 7.44%
59 | Cc1cc(C)cc(OP(C)(=O)Nc2ccc(C)cc2C)c1 (stereo not drawn) | inactive: 5.08%
60 | O=[N+]([O-])c1ccc2c(c1)nnn2O | inactive: 16.7%
61 | CC1=NCCc2c1[nH]c1ccccc21.O=[N+]([O-])c1cc([N+](=O)[O-])c(O)c([N+](=O)[O-])c1 | inactive: 6.88%
62 | CCOP1(=S)c2c(C)nn(CCC#N)c2N=C(c2ccc(F)cc2)N1C (stereo not drawn) | inactive: 0.898%
63 | CCOP1(=S)c2c(C)nn(CCC#N)c2N=C(c2ccccc2F)N1C (stereo not drawn) | inactive: 10.1%
64 | O=P(Nc1nccs1)(Oc1ccccc1)Oc1ccccc1 | inactive: 6.98%
65 | O=P(Nc1nccs1)(c1ccccc1)c1nc2ccccc2s1 (stereo not drawn) | inactive: 9.09%
66 | COc1ccccc1OP(C)(=O)Nc1c(C)cccc1C (stereo not drawn) | inactive: 7.27%
67 | CN1CCCCC1COC(=O)C1(O)c2ccccc2CCc2ccccc21 (stereo not drawn) | inactive: 5.3%
68 | O=P1(Nc2ncccn2)COc2ccccc2OC1 | inactive: 5.01%
69 | Cc1ccc(OCC(=O)OC2CN3CCC2CC3)cc1 (stereo not drawn) | inactive: 8.01%
70 | O=P1(Nc2ccc(Br)cn2)COc2ccccc2OC1 | inactive: 1.41%
71 | CCCOc1ccc(NP(C)(=O)Oc2ccc(Cl)cc2)cc1 (stereo not drawn) | inactive: 5.73%
72 | CP(=O)(Nc1ccc(SC(F)(F)F)cc1)Oc1ccccc1 (stereo not drawn) | inactive: 3.37%

Row | SMILES | % cells with GFP-LC3 spots
73 | COc1cc(C2NCCC3(OCCO3)C2(C)C)cc(OC)c1OC.O=[N+]([O-])c1cc([N+](=O)[O-])c(O)c([N+](=O)[O-])c1 (stereo not drawn) | inactive: 9.08%
74 | Cc1nn(-c2ccccc2)c2c1P(=O)(N1CCOCC1)N(C)C(c1ccccc1)=N2 (stereo not drawn) | inactive: 10.7%
75 | CC1CCC(C(C)C)C(OP(=O)(Nc2ccccn2)c2ccccc2)C1 (stereo not drawn) | inactive: 1.4%
76 | CN(C)C1(CNC(=O)c2ccc(S(C)(=O)=O)cc2)CCCCC1 | inactive: 15.8%
77 | Cc1nc2ccc3ccccc3c2s1.O=[N+]([O-])c1cc([N+](=O)[O-])c(O)c([N+](=O)[O-])c1 | inactive: 1.2%
78 | CC1(CBr)Cn2c(nc3ccccc3c2=O)S1 (stereo not drawn) | inactive: 3.57%
79 | CC(C)/C=N\N=C(\N)N[N+](=O)[O-] | inactive: 7.02%
80 | O=P1(Nc2ccccn2)COc2ccccc2OC1 | inactive: 2.76%
81 | O=[N+]([O-])c1cc([N+](=O)[O-])c(-n2nnc3ccccc32)c([N+](=O)[O-])c1 | inactive: 1.25%
82 | Clc1n[nH]nc1-c1nn[nH][15n]1 | inactive: 9.97%
83 | CCOC(=O)c1ccc(NP(C)(=O)Oc2ccc(OC)cc2)cc1 (stereo not drawn) | inactive: 5.65%
84 | CCOP(C)(=S)SCC(=O)NC(C)C(=O)O (stereo not drawn) | inactive: 1.26%
85 | CP(=O)(Nc1ccccn1)Oc1ccc(Cl)cc1 (stereo not drawn) | inactive: 0.456%
86 | CCC(C)N(CC(C)C)C(=S)SC(NC(C)=O)C(Cl)(Cl)Cl (stereo not drawn) | inactive: 3.72%
87 | COP1(=S)c2c(C)nn(CCC#N)c2N=C(c2ccc(F)cc2)N1C (stereo not drawn) | inactive: 10.8%
88 | Cc1cccc(C)c1OP(C)(=O)Nc1ccc(SC(F)(F)F)cc1 (stereo not drawn) | inactive: 5.59%
89 | CP(=O)(Oc1ccccc1)OC(c1ccccc1)C(F)(F)F (stereo not drawn) | inactive: 0%
90 | O=C(COc1ccccc1)OC1CN2CCC1CC2 (stereo not drawn) | inactive: 2.54%
91 | CP(=O)(NC(=O)Nc1ccccc1)Oc1ccccc1 (stereo not drawn) | inactive: 5.95%
92 | Cc1cc(C)cc(OP(C)(=O)Nc2ccc(SC(F)(F)F)cc2)c1 (stereo not drawn) | inactive: 17.8%
93 | CP(=S)(Nn1cnnc1)Oc1ccccc1 (stereo not drawn) | inactive: 3.58%
94 | CP(=O)(Nc1ccccc1Br)Oc1ccccc1 (stereo not drawn) | inactive: 1.93%
95 | O=P(Nc1ccccn1)(c1cccc2ccccc12)c1cccc2ccccc12 | inactive: 17%
96 | Cc1cc(SC(NC=O)C(Cl)(Cl)Cl)ncn1 (stereo not drawn) | inactive: 5.89%

Row | SMILES | % cells with GFP-LC3 spots
97 | COc1ccccc1OP(C)(=O)Nc1ccccc1 (stereo not drawn) | inactive: 25.2%
98 | Cc1cc(SC(NC(=O)c2ccccc2)C(Cl)(Cl)Cl)nc(C(C)C)n1 (stereo not drawn) | inactive: 5.51%
99 | COc1ccccc1OP(C)(=O)Nc1ccc(C)cc1 (stereo not drawn) | inactive: 2.37%
100 | Cc1ccc(NP(C)(=O)Oc2ccccc2)c(C)c1 (stereo not drawn) | inactive: 7.19%
101 | CCOC(=O)c1ccc(NP(C)(=O)Oc2ccccc2)cc1 (stereo not drawn) | inactive: 4.15%
102 | ClCCSc1nnc(-c2cccnc2)o1 | inactive: 11.8%
103 | Cc1cc(C)cc(OP(C)(N)=O)c1 (stereo not drawn) | inactive: 1.5%
104 | COc1ccccc1OP(C)(=O)Nc1cc(Cl)ccc1C (stereo not drawn) | inactive: 0.791%
105 | CC(C)NC(=O)NP(=O)(Oc1ccccc1)Oc1ccccc1 | inactive: 7.99%
106 | CCN(CC)C(=S)SC(NC=O)C(Cl)(Cl)Cl (stereo not drawn) | inactive: 1.54%
107 | COc1ccc(OP(C)(=O)Nc2cccc(F)c2)cc1 (stereo not drawn) | inactive: 2.61%
108 | O=[N+]([O-])c1cc([N+](=O)[O-])c(-c2ccn[nH]2)s1 | inactive: 23.3%
109 | O=[N+]([O-])c1ccc2c(c1)C=Nc1ccccc1O2 | inactive: 5.61%
110 | Cc1ccc2nc3c(c(C)c2c1)CC(C(Cl)Cl)S3 (stereo not drawn) | inactive: 2.47%
111 | CC(C)(C)c1ccc(OP(C)(=O)Nc2ccc(SC(F)(F)F)cc2)cc1 (stereo not drawn) | inactive: 9.81%
112 | Cc1cccc(C)c1OP(C)(N)=O (stereo not drawn) | inactive: 8.98%
113 | COc1ccc(N/C(=N/P(=O)(N2CCOCC2)N2CCOCC2)N2CCOCC2)cc1 | inactive: 2.58%
114 | O=C(OC1CN2CCC1CC2)C12CC3CC(CC(C3)C1)C2 (stereo not drawn) | inactive: 7.75%
115 | CCN(CC)CCCOC(=O)C(O)(c1ccccc1)c1ccccc1 | inactive: 0.921%
116 | Cc1cc(=O)[nH]c(N[N+](=O)[O-])n1 | inactive: 1.66%
117 | Cc1c2c(nc3ccccc13)SC(C(Cl)Cl)C2 (stereo not drawn) | inactive: 4.4%
118 | COc1ccc2nc(NP(=O)(c3ccccc3)c3ccccc3)sc2c1 | inactive: 1.29%
